According to patent US20250177359A1, “COMPOUNDS FOR USE IN THE TREATMENT OF CANCER AND INFLAMMATORY CONDITIONS” (priority 2022, published 2025):
Like-named read-outs stand apart in the source and are kept apart here.

Amino acid sequences for entries named in this document (tags omitted). A change or cut given only in a name is not applied to a line headed by its entry. Residues count along the entry.
UniProt Q9UGN5: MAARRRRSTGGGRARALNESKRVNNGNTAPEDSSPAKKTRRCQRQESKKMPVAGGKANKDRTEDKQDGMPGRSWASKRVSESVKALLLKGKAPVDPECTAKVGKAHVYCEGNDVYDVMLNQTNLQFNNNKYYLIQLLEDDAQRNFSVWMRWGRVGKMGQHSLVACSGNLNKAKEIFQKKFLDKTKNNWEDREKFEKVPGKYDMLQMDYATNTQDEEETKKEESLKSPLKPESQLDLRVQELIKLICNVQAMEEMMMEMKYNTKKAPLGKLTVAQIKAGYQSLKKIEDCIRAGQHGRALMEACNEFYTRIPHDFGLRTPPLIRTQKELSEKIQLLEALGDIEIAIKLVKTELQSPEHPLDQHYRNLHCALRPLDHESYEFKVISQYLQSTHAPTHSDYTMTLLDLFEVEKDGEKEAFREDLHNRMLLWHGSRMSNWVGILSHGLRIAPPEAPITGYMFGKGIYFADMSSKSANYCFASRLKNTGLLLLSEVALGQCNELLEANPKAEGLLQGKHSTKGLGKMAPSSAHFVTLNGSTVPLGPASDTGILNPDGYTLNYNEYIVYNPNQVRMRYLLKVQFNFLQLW
UniProt Q9H0J9, 489-701: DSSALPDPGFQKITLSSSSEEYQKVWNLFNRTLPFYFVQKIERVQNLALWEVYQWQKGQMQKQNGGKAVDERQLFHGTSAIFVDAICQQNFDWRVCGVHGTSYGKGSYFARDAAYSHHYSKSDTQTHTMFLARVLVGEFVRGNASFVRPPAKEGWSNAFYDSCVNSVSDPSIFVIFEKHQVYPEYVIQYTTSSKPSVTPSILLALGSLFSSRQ
UniProt Q7Z3E1, 448-657: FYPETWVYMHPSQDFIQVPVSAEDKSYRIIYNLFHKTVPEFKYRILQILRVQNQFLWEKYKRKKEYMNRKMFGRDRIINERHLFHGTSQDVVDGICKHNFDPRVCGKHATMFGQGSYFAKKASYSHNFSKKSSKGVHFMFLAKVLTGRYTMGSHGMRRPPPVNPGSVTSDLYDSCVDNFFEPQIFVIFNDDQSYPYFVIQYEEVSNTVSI
UniProt P09874, whole entry: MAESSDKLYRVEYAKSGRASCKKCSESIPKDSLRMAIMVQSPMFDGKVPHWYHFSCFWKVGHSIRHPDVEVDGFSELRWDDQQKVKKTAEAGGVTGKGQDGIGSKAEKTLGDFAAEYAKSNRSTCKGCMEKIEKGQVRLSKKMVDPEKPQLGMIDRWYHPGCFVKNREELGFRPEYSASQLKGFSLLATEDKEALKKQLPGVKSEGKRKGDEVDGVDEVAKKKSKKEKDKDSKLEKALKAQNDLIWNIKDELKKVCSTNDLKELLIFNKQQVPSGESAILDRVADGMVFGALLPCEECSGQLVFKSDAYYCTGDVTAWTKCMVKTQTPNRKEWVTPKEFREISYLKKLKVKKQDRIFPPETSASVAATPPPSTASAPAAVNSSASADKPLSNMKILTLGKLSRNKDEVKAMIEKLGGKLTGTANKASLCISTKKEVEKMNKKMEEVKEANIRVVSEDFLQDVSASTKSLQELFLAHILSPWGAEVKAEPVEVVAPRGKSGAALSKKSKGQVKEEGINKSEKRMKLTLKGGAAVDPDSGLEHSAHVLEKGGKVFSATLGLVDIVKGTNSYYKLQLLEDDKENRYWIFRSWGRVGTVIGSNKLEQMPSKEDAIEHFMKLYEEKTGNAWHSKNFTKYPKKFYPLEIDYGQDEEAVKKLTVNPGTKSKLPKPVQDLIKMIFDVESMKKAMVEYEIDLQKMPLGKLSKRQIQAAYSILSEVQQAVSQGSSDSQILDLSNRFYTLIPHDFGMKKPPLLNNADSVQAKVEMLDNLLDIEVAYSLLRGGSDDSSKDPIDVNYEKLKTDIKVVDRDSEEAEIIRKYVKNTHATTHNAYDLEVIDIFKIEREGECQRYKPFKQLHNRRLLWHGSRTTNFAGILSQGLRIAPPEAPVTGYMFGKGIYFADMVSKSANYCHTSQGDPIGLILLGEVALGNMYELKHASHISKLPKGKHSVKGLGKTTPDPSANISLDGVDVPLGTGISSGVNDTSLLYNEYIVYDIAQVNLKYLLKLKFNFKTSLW
UniProt Q9NR21, 116-338: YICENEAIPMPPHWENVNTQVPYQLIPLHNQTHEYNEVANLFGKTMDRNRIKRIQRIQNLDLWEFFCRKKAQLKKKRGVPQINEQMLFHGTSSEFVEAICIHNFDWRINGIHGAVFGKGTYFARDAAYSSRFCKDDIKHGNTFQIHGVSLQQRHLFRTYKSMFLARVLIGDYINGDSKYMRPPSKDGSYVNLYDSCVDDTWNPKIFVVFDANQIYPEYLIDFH
UniProt Q460N5, 1535-1801: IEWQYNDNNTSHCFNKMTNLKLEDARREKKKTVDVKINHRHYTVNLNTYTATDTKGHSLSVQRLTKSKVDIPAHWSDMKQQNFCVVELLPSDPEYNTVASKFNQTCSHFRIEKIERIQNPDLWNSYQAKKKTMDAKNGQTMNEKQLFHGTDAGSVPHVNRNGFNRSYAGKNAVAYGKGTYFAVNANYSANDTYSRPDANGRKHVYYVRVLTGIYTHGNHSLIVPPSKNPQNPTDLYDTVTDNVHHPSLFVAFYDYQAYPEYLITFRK
UniProt Q9Y6F1: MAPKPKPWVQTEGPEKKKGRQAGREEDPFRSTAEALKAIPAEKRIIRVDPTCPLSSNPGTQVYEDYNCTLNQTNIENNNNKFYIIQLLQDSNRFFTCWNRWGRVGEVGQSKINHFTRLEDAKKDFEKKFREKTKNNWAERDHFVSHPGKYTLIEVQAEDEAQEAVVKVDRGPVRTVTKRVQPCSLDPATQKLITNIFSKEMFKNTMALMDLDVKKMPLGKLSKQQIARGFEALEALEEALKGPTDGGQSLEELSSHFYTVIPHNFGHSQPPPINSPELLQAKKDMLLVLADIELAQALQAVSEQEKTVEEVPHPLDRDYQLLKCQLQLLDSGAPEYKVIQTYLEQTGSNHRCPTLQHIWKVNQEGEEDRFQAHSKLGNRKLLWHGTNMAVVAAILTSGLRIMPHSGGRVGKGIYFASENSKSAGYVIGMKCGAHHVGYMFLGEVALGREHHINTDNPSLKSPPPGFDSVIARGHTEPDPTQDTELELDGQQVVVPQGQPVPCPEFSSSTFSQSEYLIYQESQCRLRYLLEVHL
UniProt Q9UKK3: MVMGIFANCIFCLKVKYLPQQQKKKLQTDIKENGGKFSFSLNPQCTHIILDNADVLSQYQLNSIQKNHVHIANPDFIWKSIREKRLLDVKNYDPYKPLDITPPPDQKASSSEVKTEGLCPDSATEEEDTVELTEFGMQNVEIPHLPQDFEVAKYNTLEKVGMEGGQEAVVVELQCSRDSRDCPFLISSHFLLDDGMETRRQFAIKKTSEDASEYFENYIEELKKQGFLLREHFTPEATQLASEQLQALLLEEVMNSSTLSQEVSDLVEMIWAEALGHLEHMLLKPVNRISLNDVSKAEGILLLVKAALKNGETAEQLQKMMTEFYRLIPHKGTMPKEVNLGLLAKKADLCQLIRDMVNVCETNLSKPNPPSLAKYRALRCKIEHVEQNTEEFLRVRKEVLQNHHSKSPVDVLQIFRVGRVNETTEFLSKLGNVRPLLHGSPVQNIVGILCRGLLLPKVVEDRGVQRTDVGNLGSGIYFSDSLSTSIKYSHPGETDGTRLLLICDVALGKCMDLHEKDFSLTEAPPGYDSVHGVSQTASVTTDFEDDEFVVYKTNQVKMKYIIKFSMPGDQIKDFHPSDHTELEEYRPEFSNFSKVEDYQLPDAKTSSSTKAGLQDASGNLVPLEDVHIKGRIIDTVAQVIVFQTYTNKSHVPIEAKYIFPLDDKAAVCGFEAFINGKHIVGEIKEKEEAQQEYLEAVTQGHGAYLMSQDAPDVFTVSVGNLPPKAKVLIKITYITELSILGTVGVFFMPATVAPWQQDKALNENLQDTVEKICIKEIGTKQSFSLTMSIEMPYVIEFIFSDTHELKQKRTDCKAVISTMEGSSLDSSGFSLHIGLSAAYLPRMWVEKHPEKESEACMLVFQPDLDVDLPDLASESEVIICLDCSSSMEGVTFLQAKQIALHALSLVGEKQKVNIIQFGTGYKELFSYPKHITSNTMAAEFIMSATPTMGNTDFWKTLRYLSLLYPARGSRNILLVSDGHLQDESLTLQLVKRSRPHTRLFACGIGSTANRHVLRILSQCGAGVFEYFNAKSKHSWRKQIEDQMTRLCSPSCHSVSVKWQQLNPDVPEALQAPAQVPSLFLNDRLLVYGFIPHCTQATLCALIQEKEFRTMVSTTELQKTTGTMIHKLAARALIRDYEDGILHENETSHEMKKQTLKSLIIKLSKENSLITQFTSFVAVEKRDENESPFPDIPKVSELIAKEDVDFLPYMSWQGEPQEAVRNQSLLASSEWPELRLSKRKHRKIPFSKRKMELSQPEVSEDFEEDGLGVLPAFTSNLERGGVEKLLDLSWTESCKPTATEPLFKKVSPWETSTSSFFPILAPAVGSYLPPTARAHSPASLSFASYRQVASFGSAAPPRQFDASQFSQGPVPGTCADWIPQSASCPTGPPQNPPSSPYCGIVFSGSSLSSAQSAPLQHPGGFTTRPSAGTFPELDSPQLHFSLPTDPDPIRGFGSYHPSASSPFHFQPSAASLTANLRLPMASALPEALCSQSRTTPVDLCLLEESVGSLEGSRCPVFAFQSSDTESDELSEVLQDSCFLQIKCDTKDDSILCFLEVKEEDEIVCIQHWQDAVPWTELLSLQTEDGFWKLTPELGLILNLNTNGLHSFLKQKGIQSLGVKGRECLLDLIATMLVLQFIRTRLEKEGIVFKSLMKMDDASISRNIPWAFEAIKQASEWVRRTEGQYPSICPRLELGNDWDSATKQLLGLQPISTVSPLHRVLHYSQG

What was measured:
PARP2 = target: T1, PARP2 (Homo sapiens, UniProt Q9UGN5); format: biochemical
T1 construct: made in house
Procedure: (§1) All starting materials, reagents, and solvents were purchased from common commercial suppliers and were used as such without further purification. […] Organic solutions were dried over anhydrous Na2SO4 and concentrated with rotary evaporator at low pressure. All the reactions were routinely checked by thin-layer chromatography (TLC) on silica gel 60F254 (Merck) and visualized by using UV and iodine. Flash chromatography separations were carried out on Merck silica gel 60 (mesh 230-400) or by using automated Buchi Reveleris X2-UV with column FP Ecoflex Si 12 g. Yields were of purified products and were not optimized. ^1HNMR spectra were recorded at 400 MHz (Bruker Avance DRX-400), while ^13CNMR spectra were recorded at 101 MHz (Bruker Avance DRX-400). Chemical shifts are given in ppm (δ) relative to TMS. […] Mating constant (J) are reported in Hz. The purity of the tested compounds was evaluated by HPLC analysis using Jasco LC-4000 instrument equipped with a UV-Visible Diode Array Jasco-MD4015 (Jasco Corporation, Tokyo, Japan), and XTerra MS C18 column, 5 μm×4.6 mm×150 mm (Waters Corporation, Massachusetts, USA). Chromatograms were analyzed by ChromNAV2.0 Chromatography Data System software. […] The peak retention time (ret. time) is given in minutes. […] 1-Isobutoxy-4-methoxy-2-nitrobenzene (113). Isobutyl alcohol (0.6 mL, 6.43 mmol) was added, under nitrogen atmosphere at 0° C., to a suspension of NaH (0.26 g, 6.43 mmol) in dry DMF. After 15 minutes, 1-fluoro-4-methoxy-2-nitrobenzene 112 (1 g, 5.84 mmol) was also added and the reaction mixture was stirred at 80° C. for 4 h. […] (2-Isobutoxy-5-methoxyphenyl)amine (114). Zn (1.57 g, 24 mmol) and NH4C1 (2.45 g, 40 mmol) were added to a solution of 113 (0.46 g, 2 mmol) in acetone/H2O (50 mL, ratio 5:1). The reaction mixture was stirred at 60° C. for 3 h and, then, it was filtered over celite. […] N-(2,5-diethoxyphenyl)thiourea (55). […] N-(2-isobutoxy-5-methoxyphenyl)thiourea (115). […] A solution of Br2 (0.2 mL, 3.3 mmol) in CHCl3 (5 mL) was slowly added to a suspension of 45 (0.6 g, 3.3 mmol) in CHCl3 (13 mL), at 0° C. The reaction mixture was stirred at r.t. for 4 h and, then, a 10% solution of Na2SO3 in water was added to the mixture. […] 4,7-Diethoxy-1,3-benzothiazol-2-amine (66). […] 4-Isobutoxy-7-methoxy-1,3-benzothiazol-2-amine (116).

PARP10 = target: T2, PARP10 (Homo sapiens, UniProt Q53GL7); assay: Activity assay measuring NAD+ consumption, PARP10 (Tables 1-3); format: biochemical
T2 construct: made in house
T2 sequence (Q53GL7 1-1025): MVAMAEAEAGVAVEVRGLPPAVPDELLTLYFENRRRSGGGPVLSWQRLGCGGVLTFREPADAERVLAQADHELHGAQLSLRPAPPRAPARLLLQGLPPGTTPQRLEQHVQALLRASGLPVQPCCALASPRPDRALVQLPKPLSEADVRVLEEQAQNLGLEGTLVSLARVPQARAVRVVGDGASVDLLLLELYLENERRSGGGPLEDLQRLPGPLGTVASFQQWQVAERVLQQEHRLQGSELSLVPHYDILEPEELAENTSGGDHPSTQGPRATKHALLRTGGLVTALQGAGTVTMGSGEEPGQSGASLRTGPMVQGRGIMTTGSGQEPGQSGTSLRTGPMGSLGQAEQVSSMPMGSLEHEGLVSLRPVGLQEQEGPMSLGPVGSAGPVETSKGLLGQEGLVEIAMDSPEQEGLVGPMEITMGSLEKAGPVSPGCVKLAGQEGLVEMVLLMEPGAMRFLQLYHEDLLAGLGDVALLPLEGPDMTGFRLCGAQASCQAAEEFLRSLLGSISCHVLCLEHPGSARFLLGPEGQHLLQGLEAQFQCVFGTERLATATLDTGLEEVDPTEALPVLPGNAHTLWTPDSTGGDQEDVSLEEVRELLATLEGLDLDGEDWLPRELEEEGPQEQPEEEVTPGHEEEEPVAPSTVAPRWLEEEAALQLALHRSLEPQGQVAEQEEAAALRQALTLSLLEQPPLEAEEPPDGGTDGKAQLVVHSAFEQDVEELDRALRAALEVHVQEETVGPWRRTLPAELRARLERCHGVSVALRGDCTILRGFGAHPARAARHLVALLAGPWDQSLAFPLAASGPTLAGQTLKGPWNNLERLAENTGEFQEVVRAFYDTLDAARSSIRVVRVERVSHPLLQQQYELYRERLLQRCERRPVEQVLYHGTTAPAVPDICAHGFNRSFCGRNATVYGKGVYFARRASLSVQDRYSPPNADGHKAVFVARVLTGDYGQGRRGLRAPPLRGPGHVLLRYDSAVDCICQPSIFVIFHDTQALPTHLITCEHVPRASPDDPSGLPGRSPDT

PARP12 (489-701) = PARP12 (489-701) (Homo sapiens, UniProt Q9H0J9); assay: biochemical
Procedure: as §1

PARP15 = target: T3, PARP15 (Homo sapiens, UniProt Q460N3); assay: biochemical
T3 sequence (Q460N3 1-678): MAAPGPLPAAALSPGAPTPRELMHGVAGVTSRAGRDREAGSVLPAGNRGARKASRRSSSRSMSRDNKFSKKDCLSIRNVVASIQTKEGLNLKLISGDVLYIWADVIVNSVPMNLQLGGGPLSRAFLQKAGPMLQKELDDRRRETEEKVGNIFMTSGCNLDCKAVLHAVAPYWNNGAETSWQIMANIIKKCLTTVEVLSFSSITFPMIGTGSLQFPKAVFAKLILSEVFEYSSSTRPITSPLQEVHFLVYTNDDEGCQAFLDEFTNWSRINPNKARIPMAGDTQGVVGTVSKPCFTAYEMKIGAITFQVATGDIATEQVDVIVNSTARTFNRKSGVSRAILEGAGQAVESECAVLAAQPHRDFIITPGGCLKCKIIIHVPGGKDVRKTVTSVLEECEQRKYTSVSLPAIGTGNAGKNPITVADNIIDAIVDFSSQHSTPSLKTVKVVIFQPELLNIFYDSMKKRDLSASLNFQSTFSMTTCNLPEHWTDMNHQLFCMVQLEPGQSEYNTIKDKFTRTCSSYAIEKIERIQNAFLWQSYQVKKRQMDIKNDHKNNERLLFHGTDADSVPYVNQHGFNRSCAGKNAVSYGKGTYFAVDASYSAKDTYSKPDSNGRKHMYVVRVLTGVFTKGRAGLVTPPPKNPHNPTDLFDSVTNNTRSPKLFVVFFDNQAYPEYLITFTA
Procedure: as §1

PARP7 (residues 448-657) = PARP7 (residues 448-657) (Homo sapiens, UniProt Q7Z3E1); assay: biochemical
Procedure: as §1

PARP1 = PARP1 (Homo sapiens, UniProt P09874); conditions: for IC50: read-out: PARP1 IC50, Table 4
Procedure: as §1

PARP10 (809-1016) = PARP10 (809-1016) (Homo sapiens, UniProt Q53GL7); conditions: read-out: PARP10 IC50; proximity enhanced assay
Procedure: as §1

PARP11 (116-338) = PARP11 (116-338) (Homo sapiens, UniProt Q9NR21); conditions: proximity enhanced assay; for IC50: read-out: PARP11 IC50; for PARP11 pIC50 ± SEM: n = 3
Procedure: as §1

PARP14 (1535-1801) = PARP14 (1535-1801) (Homo sapiens, UniProt Q460N5); conditions: read-out: PARP14 IC50; proximity enhanced assay
Procedure: as §1

PARP15 (481-678) = PARP15 (481-678) (Homo sapiens, UniProt Q460N3); conditions: read-out: PARP15 IC50; proximity enhanced assay
Procedure: as §1

PARP3 = PARP3 (Homo sapiens, UniProt Q9Y6F1); conditions: read-out: PARP3 IC50; Table 4
Procedure: as §1

PARP4 = PARP4 (Homo sapiens, UniProt Q9UKK3); conditions: read-out: PARP4 IC50; Table 4
Procedure: as §1

TNKS2 = target: T4, TNKS2 (Homo sapiens, UniProt Q9H2K2); conditions: read-out: TNKS2 IC50; NAD+ consumption assay; > less than 50% inhibition at highest concentration, >> no inhibition
T4 sequence (Q9H2K2 1-1166): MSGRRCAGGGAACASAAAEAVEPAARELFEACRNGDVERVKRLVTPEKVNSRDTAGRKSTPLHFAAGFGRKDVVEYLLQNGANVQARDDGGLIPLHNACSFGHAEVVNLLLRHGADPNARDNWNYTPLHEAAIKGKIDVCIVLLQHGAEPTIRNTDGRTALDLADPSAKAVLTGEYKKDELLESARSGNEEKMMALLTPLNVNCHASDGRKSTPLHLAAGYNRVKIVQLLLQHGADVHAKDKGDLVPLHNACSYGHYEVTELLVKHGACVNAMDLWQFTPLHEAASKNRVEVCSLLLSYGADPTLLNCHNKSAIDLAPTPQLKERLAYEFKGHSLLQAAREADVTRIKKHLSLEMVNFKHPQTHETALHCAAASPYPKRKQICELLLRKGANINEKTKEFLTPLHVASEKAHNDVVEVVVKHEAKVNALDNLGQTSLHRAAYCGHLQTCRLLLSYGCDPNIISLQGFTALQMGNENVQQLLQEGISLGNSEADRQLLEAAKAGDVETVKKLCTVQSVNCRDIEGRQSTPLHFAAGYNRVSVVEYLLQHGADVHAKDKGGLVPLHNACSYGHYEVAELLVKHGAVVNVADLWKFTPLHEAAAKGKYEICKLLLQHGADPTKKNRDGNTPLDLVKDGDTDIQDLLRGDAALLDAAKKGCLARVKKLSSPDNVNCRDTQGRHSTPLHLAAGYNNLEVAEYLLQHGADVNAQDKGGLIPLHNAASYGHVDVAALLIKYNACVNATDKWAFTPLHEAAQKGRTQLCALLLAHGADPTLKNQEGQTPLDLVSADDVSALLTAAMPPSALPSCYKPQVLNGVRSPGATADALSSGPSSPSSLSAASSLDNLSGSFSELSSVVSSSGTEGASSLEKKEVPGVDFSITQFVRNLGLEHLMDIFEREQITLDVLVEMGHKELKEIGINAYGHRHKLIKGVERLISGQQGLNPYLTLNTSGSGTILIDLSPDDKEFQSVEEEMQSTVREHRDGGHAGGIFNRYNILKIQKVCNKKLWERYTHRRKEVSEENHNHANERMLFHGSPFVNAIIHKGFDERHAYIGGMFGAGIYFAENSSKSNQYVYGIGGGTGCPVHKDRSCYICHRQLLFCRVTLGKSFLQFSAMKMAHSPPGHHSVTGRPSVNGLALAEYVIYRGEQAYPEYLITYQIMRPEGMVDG
Procedure: as §1

[1] = PARP10 IC50, Tables 1-3 assay, > less than 50% inhibition, >> no inhibition at reported concentration, * value limited by protein concentration
[2] = Tables 1-3 assay, read-out: PARP10 IC50
[3] = proximity enhanced assay, n = 3
[4] = read-out: PARP15 IC50, Tables 1-3 assay

Row | Compound | IC50 (PARP10; [1]) | IC50 (PARP15) | IC50 (PARP1) | IC50 (PARP10 (809-1016)) | IC50 (PARP11 (116-338)) | IC50 (PARP14 (1535-1801)) | IC50 (PARP15 (481-678)) | IC50 (PARP3) | IC50 (PARP4) | PARP10 pIC50 ± SEM (PARP10; Tables 1-3 assay) | IC50 (PARP10; [2]) | PARP15 pIC50 ± SEM (PARP15; Tables 1-3 assay) | IC50 (PARP15; [4]) | PARP11 pIC50 ± SEM (PARP11 (116-338)) | further results
1 | Oc1ccc2c(c1)sc1nncn12 [Compound 10] | > 10 µM | > 10 µM | 0.57 µM | 2.9 µM | 9.4 µM | 6.7 µM | 2 µM | 8.8 µM | 6 µM | – | – | – | – | – | selectivity for PARP2 over TNKS2 (PARP2; IC50 of […] nM versus 370 nM): ten-fold; selectivity towards PARP2 over PARP1 (PARP2; Table 4 values): 13 fold; selectivity towards PARP2 over tankyrases (PARP2; Table 4 values): 8 fold; IC50 (PARP12 (489-701)): > 10 µM; IC50 (PARP7 (residues 448-657)): > 10 µM; PARP1 pIC50 ± SEM (PARP1; n = 3): (6.25 ± 0.02)
2 | COc1ccc(OC)c2c1sc1nnc(N)n12 [Compound 28, 5,8-Dimethoxy[1,2,4]triazolo[3,4-b][1,3]benzothiazol-3-amine] | ≤ 0.12 µM | ≤ 0.12 µM | 15 µM | – | 0.24 µM | 0.3 µM | 0.056 µM | 50 µM | 11 µM | (6.93 ± 0.06) | 0.12 µM | (6.91 ± 0.03) | 0.12 µM | (6.61 ± 0.07) | PARP12 pIC50 ± SEM (PARP12 (489-701); [3]): (6.80 ± 0.002); PARP7 pIC50 ± SEM (PARP7 (residues 448-657); [3]): (7.08 ± 0.06)
3 | Cc1ccc2c(c1)sc1nnc(N)n12 [Compound 22, 7-Methyl[1,2,4]triazolo[3,4-b][1,3]benzothiazol-3-amine] | ≤ 0.18 µM | – | – | 0.025 µM | – | 0.65 µM | 0.26 µM | 34 µM | 10 µM | (6.73 ± 0.12) | 0.18 µM | (6.53 ± 0.14) | 0.3 µM | (6.33 ± 0.13) | IC50 (PARP12 (489-701); read-out: PARP12 IC50, proximity enhanced assay, > less than 50% inhibition at highest concentration): 4.4 µM; IC50 (PARP7 (residues 448-657); read-out: PARP7 IC50, proximity enhanced assay, >> no inhibition at reported concentration): 3.8 µM
4 | COc1ccc(OC)c2c1SC1=NNC(NC(=O)c3ccc(Cl)cc3)N12 (stereo not drawn) [Compound 29, 4-Chloro-N-(5,8-dimethoxy-2,3-dihydro[1,2,4]triazolo[3,4-b][1,3]benzothiazol-3-yl)benzamide] | – | – | – | – | – | – | – | – | – | – | – | – | – | – | IC50 (PARP2; NAD+ consumption assay, > less than 50% inhibition at highest concentration, >> no inhibition): 44 µM; IC50 (TNKS2): 20 µM
